Shown are actives, neighbours in structure and some others; about 1.2% of the full set was active somewhere.
Statin myotox sup: suppressors of statin myotoxicity in C2C12 myotubes, primary screen, cell-based, single point, plate reader | rescue of ATP level, % at 7.49 µM | C2C12 myotubes + simvastatin, ATP luminescence, 48 h; scaled: DMSO 0, geranylgeraniol control 100 | 0.78% of 330,000 active;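 active means mean ATP rescue above about 67%, or every replicate alone reaching that limit, limit read from the data, passing the limit was not always enough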;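 further: myotubes were challenged with 10 µM simvastatin during compound exposure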
miR122 inh: miR-122 Renilla sensor signal increase in Huh7, primary screen, miR-122 inhibitor project, cell-based, single point, plate reader | Huh7 miR-122 Renilla luciferase sensor, 48 h; neutral wells = 0, positive control = 100 | activation (reporter increase), % at 12.5 µM | 0.3% of 340,000 active;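 active means mean replicate activation score at least 90 and every replicate individually at or above 90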;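 further: higher luciferase means less miR-122 activity so hits act as miR-122 inhibitors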
Cneo AK release: Cryptococcus neoformans cell lysis inducers, primary screen, AK release luminescence, single concentration. 0.2% of 360,000 active. lysis activity, % at 15 µM. C. neoformans lysis, adenylate kinase release luminescence, 4 h; normalised: neutral wells 0, clomiphene wells 100;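 active means mean lysis activity across replicates of at least 80%, whatever share of replicates individually reach that level; inactive means mean lysis activity below 80%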
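Test system: log-phase Cryptococcus neoformans yeast cells. Input: 5 × 10^6 yeast cells/mL. Medium: fresh YPD growth medium. Doses: single dose. Incubation: static 4 h at 37 °C with compound, 1 h detection. Measured by: luminescent adenylate kinase detection reagent. Read-out: signal increase indicating cell lysis. Benchmarks: Clomiphene.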
UUG fidelity: alters start codon recognition fidelity in yeast; S. cerevisiae UUG-firefly luciferase reporter, luminescence/redox ratio; activity score, % at 18.7 µM; actives 0.13% (n = 350,000); AID 602363;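 active = replicate mean at a twofold rise or more, about +100% in these data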;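 also: firefly luciferase made from a UUG start codon reports start codon fidelity; reporter light over untreated wells divided by growth signal over untreated wells; some hits fall short of that in this replicate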
* hit, by the source's call; nt = not tested or not shown; ! = not confirmed by another sample; [ ] = dose if it differs, or a comment.

SMILES	Statin myotox sup	miR122 inh	Cneo AK release	UUG fidelity
COc1cccc(CN(C(=O)Cc2c[nH]c3ccccc23)C(C(=O)NC2CCCCC2)c2cccs2)c1 (centres undefined)	-0.7	240.2*	-2.4	-17.3
COc1ccc(C(C(=O)NC2CCCCC2)N(Cc2cccs2)C(=O)Cc2c[nH]c3ccccc23)cc1 (centres undefined)	28.5	65.2	-0.3	-10.0
Cc1ccc(C)c(/C(O)=C2\C(=O)C(=O)N(CCCn3ccnc3)C2c2ccncc2)c1 (centres undefined)	83.7*	4.1	2.0	-8.1
O=C(C[C@@H]1CC[C@@H]2[C@H](COC[C@H](O)CN2S(=O)(=O)c2ccccc2)O1)N[C@@H]1CCN(Cc2ccccc2)C1	-9.1	4.9[16.7 µM]	0.1	nt
CCCCN(Cc1cc2cc(OC)ccc2[nH]c1=O)C(=O)COc1ccccc1	-8.1	4.7	-0.6	-7.2
COc1ccc2[nH]c(=O)c(CN(C)C(=O)COc3ccccc3)cc2c1	72.2*	0.5	3.3	-16.7
C[C@@H]1CCCCO[C@H](CN(C)Cc2ccc(C(=O)O)cc2)[C@H](C)CN([C@H](C)CO)C(=O)c2cc(NC(=O)CCCN(C)C)ccc2O1	nt	-1.4[16.7 µM]	-5.7	-16.6
Cc1ccc(N2CCN(C(=O)c3ccccc3Br)CC2)c(C)c1	80.6*	-1.4	0.7	-14.0
C[C@@H]1CN([C@@H](C)CO)C(=O)c2cc(N(C)C)ccc2O[C@@H](C)CCCCO[C@H]1CN(C)C(=O)c1ccncc1	1.6	7.0[16.7 µM]	52.1	19.4
O=C(Nc1ccc2nc(-c3cccs3)c(-c3cccs3)nc2c1)NC1CC1	3.3	nt	-0.7	-5.5
COCCNC(=O)Nc1ccc2nc(-c3cccs3)c(-c3cccs3)nc2c1	125.0*	-8.3	4.4	-14.1
O=C(C1=C[C@H](c2csc3ccccc23)C[C@H](OCCCCO)O1)N1CCCCCCC1	nt	nt	5.1	21.2
O=C(Nc1cccc(Cl)c1)N[C@@H]1CC[C@@H](CCNC(=O)C2CC2)O[C@H]1CO	-4.4	nt	-1.2	5.2
C[C@@H]1CN([C@@H](C)CO)C(=O)Cc2cc(NC(=O)Nc3cccc4ccccc34)ccc2O[C@H]1CN(C)C(=O)Nc1ccccc1	28.4	-9.4[16.7 µM]	-0.6	-6.7
C[C@@H]1CN([C@@H](C)CO)C(=O)Cc2cc(NC(=O)Nc3ccc(F)cc3)ccc2O[C@@H]1CN(C)Cc1ccc(Cl)c(Cl)c1	108.0*	-24.4	-0.5	10.8
C[C@H]1CN([C@@H](C)CO)C(=O)Cc2cc(NC(=O)Nc3ccccc3)ccc2O[C@H]1CN(C)Cc1ccc(Cl)c(Cl)c1	-84.0	-17.8[16.7 µM]	1.7	7.9
COc1ccc(NC(=O)Nc2ccc3c(c2)CC(=O)N([C@@H](C)CO)C[C@H](C)[C@@H](CN(C)C(=O)NC(C)C)O3)cc1	23.7	29.0[16.7 µM]	16.0	33.3
Cc1noc(C)c1NC(=O)Nc1ccc2c(c1)CC(=O)N([C@@H](C)CO)C[C@H](C)[C@@H](CN(C)Cc1ccc(Cl)c(Cl)c1)O2	22.9	108.8*[16.7 µM]	-0.4	9.6
COc1ccc(NC(=O)Nc2ccc3c(c2)CC(=O)N([C@@H](C)CO)C[C@@H](C)[C@@H](CN(C)C(=O)NC(C)C)O3)cc1	-36.9	100.8*[16.7 µM]	74.1	19.5
Cc1noc(C)c1NC(=O)Nc1ccc2c(c1)CC(=O)N([C@H](C)CO)C[C@@H](C)[C@H](CN(C)Cc1ccc(Cl)c(Cl)c1)O2	44.1	71.8[16.7 µM]	-1.9	2.2
COc1ccc(CN(C)C[C@@H]2Oc3ccc(NC(=O)Nc4ccc(F)cc4)cc3CC(=O)N([C@H](C)CO)C[C@H]2C)cc1	24.3	3.1[16.7 µM]	115.1*	4.8
C[C@@H]1CN([C@@H](C)CO)C(=O)c2cc(NC(=O)Nc3ccc(C(F)(F)F)cc3)ccc2O[C@@H]1CN(C)Cc1ccc(-c2ccccc2)cc1	nt	-2.7[16.7 µM]	0.4	7.6
CCn1ccc(=N)cc1	112.8*	-5.5	-3.6	-7.1
O=C(Nc1ncn[nH]1)c1c(Cl)ccc(Cl)c1Cl	153.4*	7.5	-0.9	-13.2

Molecules listed so far with an NH in an aromatic ring (5):
SMILES	Statin myotox sup	miR122 inh	Cneo AK release	UUG fidelity
COc1cccc(CN(C(=O)Cc2c[nH]c3ccccc23)C(C(=O)NC2CCCCC2)c2cccs2)c1 (centres undefined)	-0.7	240.2*	-2.4	-17.3
COc1ccc(C(C(=O)NC2CCCCC2)N(Cc2cccs2)C(=O)Cc2c[nH]c3ccccc23)cc1 (centres undefined)	28.5	65.2	-0.3	-10.0
CCCCN(Cc1cc2cc(OC)ccc2[nH]c1=O)C(=O)COc1ccccc1	-8.1	4.7	-0.6	-7.2
COc1ccc2[nH]c(=O)c(CN(C)C(=O)COc3ccccc3)cc2c1	72.2*	0.5	3.3	-16.7
O=C(Nc1ncn[nH]1)c1c(Cl)ccc(Cl)c1Cl	153.4*	7.5	-0.9	-13.2

(listing goes on)
SMILES	Statin myotox sup	miR122 inh	Cneo AK release	UUG fidelity
O=C(Nc1ncn[nH]1)c1ccccc1O	-4.9	-5.8	-1.6	-1.4
C[C@@H]1CN([C@@H](C)CO)C(=O)Cc2cc(N(C)C)ccc2O[C@H]1CN(C)Cc1ccc(C(=O)Nc2ccccc2N)cc1	38.9	113.2*[16.7 µM]	-2.4	-1.5
C[C@H]1CN([C@@H](C)CO)C(=O)Cc2cc(N(C)C)ccc2O[C@@H]1CN(C)Cc1ccc(C(=O)Nc2ccccc2N)cc1	36.3	26.7[16.7 µM]	6.0	1.4
C[C@H](CO)N1C[C@H](C)[C@@H](CN(C)Cc2ccc(C(=O)Nc3ccccc3N)cc2)Oc2ccc(NC(=O)C3CC3)cc2CC1=O	26.7	8.1[16.7 µM]	3.1	20.0
C[C@@H]1CN([C@@H](C)CO)C(=O)Cc2cc(N(C)C)ccc2O[C@@H]1CN(C)Cc1ccc(C(=O)Nc2ccccc2N)cc1	-143.8	138.3*[16.7 µM]	-11.8	4.6
C[C@H](CO)N1C[C@H](C)[C@H](CN(C)Cc2ccc(C(=O)Nc3ccccc3N)cc2)Oc2ccc(NC(=O)C3CC3)cc2CC1=O	7.7	165.3*[16.7 µM]	-5.0	-0.8
Cc1ccc(NC(=O)Cc2c(C(=O)O)n(C)c3ccccc23)cc1F	nt	-5.5	nt	nt
Cc1ccc(NC(=O)Cc2cn(C)c3ccccc23)cc1F	11.4	321.4*	-3.7	2.5
O=C(C1CCCC1)N1CCCCN2[C@H](CO)[C@@H](c3ccc(-c4cccc(F)c4)cc3)[C@@H]2C1	nt	-27.7[16.7 µM]	0.4	8.6
CCC(C(=O)c1ccc(O)cc1)c1ccccc1 (centres undefined)	14.2	25.7	-2.7	-15.6
CCC(C(=O)N(C(C)C)C(C)C)c1ccccc1 (centres undefined)	130.4*	-1.2	-1.5	-14.2
O=C(C[C@H]1C=C[C@H](NC(=O)Nc2ccc3c(c2)OCO3)[C@@H](CO)O1)NCc1ccc(F)cc1	-12.7	nt	7.3	-12.7
C[C@H]1CN([C@@H](C)CO)C(=O)Cc2cc(NS(C)(=O)=O)ccc2O[C@@H]1CN(C)Cc1ccc(Cl)c(Cl)c1	22.3	35.9[16.7 µM]	111.9*!	8.6
C[C@@H]1CN([C@H](C)CO)C(=O)Cc2cc(NS(C)(=O)=O)ccc2O[C@@H]1CN(C)Cc1ccc(Cl)c(Cl)c1	107.7*	-4.9[16.7 µM]	-1.0	nt
C[C@@H]1CN([C@@H](C)CO)C(=O)Cc2cc(NS(C)(=O)=O)ccc2O[C@H]1CN(C)Cc1ccc(Cl)c(Cl)c1	-24.8	-19.9[16.7 µM]	4.6	nt
C[C@H](CO)N1C[C@H](C)[C@@H](CN(C)Cc2ccc(Cl)c(Cl)c2)Oc2ccc(NS(C)(=O)=O)cc2CC1=O	92.1*	0.9[16.7 µM]	50.0	nt
CC(=O)OC12CC3CC(C1)C(=NO)C(C3)C2	93.8*	-8.6	6.6	-10.7
Cc1ccc(N(CN2CCCC2=O)C(=O)c2ccc(C)c(C)c2)cc1	112.8*	-1.7	0.9	-3.3
CSc1ccc(/C=C(/NC(=O)c2ccccc2)C(=O)NCCCn2ccnc2)cc1	-1.9	112.8*	1.1	-21.8
